Assay [1] has as its target Tyrosine-protein kinase JAK2 (Homo sapiens, UniProt O60674). Nature of the assay: (§1) JAK Enzyme Assay: The activity of the isolated recombinant JAK1 and JAK2 kinase domain was measured by monitoring phosphorylation of a peptide derived from JAK3 ([…] fluorescently labeled on the N-terminus with 5-carboxyfluorescein) using the Caliper LabChip® technology (Caliper Life Sciences, Hopkinton, Mass.). […] Reactions were incubated at 22° C. in 384-well polypropylene microtiter plates for 30 minutes and then stopped by addition of 25 μL of an EDTA containing solution (100 mM HEPES buffer (pH 7.2), 0.015% Brij-35, 150 mM EDTA), resulting in a final EDTA concentration of 50 mM. After termination of the kinase reaction, the proportion of phosphorylated product was determined as a fraction of total peptide substrate using the Caliper LabChip® 3000 according to the manufacturer's specifications.

Chains of the proteins cited; added tags and fusions are not shown. Lines headed by an entry give the natural chain unless they say otherwise; changes in a name come on top.
UniProt O60674: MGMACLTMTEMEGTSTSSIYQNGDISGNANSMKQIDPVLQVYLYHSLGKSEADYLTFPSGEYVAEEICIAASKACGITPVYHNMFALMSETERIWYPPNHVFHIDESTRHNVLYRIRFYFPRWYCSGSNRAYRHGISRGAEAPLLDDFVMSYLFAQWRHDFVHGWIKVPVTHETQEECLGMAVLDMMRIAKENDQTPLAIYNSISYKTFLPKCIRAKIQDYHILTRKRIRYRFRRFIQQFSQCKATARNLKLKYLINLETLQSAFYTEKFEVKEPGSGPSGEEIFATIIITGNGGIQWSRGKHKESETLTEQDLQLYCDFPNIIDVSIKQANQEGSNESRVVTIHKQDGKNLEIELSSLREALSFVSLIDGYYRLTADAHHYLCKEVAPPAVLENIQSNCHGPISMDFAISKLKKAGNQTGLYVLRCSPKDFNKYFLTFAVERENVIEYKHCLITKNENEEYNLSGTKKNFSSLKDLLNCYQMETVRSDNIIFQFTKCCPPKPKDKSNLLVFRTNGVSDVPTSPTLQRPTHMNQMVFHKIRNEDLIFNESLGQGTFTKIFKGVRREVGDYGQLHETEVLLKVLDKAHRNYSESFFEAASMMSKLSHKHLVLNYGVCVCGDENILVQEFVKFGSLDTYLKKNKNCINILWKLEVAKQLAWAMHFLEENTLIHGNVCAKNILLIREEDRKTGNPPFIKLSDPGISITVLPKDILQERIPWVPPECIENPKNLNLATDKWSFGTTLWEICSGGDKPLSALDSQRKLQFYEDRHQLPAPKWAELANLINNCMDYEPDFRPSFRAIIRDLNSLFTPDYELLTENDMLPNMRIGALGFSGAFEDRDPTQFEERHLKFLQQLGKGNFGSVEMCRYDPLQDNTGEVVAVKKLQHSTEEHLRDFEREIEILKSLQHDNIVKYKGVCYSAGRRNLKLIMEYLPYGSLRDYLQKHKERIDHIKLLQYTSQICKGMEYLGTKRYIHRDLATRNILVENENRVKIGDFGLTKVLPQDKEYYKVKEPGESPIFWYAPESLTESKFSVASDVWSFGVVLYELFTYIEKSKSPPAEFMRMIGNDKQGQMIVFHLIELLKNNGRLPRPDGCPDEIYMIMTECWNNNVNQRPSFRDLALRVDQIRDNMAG
UniProt P23458: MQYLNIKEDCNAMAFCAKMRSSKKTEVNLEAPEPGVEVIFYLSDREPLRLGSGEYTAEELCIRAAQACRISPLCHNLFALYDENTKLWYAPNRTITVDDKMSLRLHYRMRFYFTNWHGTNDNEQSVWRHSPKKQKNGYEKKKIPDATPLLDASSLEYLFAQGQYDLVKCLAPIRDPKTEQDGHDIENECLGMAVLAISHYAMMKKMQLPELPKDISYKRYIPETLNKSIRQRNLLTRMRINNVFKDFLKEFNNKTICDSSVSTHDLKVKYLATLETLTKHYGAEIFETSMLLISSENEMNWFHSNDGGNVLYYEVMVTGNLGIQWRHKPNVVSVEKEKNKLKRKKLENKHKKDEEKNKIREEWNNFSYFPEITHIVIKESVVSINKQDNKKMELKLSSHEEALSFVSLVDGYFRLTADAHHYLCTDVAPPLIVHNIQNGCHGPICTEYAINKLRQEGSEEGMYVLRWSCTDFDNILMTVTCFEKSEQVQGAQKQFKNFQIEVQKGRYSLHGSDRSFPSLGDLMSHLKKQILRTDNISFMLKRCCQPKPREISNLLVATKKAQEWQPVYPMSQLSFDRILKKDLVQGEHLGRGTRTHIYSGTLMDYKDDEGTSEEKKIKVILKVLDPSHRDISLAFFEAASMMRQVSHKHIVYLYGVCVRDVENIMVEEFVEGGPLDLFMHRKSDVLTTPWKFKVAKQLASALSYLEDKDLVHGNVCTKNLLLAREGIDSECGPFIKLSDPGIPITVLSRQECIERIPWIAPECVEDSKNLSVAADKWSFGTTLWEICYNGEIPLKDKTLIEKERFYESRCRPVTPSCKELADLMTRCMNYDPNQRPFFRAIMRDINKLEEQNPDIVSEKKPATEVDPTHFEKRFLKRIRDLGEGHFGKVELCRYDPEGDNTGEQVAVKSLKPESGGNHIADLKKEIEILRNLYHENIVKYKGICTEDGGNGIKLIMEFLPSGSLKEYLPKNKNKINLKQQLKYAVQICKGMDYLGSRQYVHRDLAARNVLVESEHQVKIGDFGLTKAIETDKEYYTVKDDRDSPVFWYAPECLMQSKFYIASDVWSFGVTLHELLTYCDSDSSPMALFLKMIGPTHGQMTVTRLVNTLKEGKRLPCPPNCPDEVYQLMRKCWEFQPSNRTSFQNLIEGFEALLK

In assay [2] the target is Tyrosine-protein kinase JAK1 (Homo sapiens, UniProt P23458). Described as §1.

SMILES strings stand for the structures. pKi: −log10 of the molar value.

What is called pKi is the Ki on a negative log10 scale, so that one unit is a factor of ten. Consider `CCOC(=O)CCN1CCN(C(=O)Cn2cc(NC(=O)c3cnn4cccnc34)c(-c3cc(Cl)ccc3OC(F)F)n2)CC1`, for which the negative logarithm of the Ki (pKi) in assay [1] is 9.04.
For the compound `CN1CCC(n2cc(NC(=O)c3c(N)nn4cccnc34)c(-c3cc(Cl)ccc3OC(F)F)n2)CC1`, the pKi in assay [1] was 9.74.
`CN(CC1(C#N)CC1)C1CCN(C(=O)Cn2cc(NC(=O)c3cnn4cccnc34)c(-c3cc(Cl)ccc3OC(F)F)n2)CC1`: the pKi in assay [2] was 9.62.
For the compound `Nc1nn2cccnc2c1C(=O)Nc1cn(CC(=O)N2CC[C@@H](O)C2)nc1-c1cc(Cl)ccc1OC(F)F`, in assay [2], the pKi is 9.68.

The record behind these values is ChEMBL document CHEMBL3886737, “5-chloro-2-difluoromethoxyphenyl pyrazolopyrimidine compounds, compositions and methods of use thereof” (2016).
